Source: PubChem BioAssay (several laboratories)
ALR inh = human ALR oxidase inhibition via reduced H2O2; purified ALR, DTT oxidation, H2O2 HRP-luminol luminescence; inhibition, % (concentration not given with the values); 290,000 tested, 3.8% active; AID 485317;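 active = mean and each replicate at 75% or more; inconclusive = only one of the two met; inactive = neither met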;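 also: stock transfer was 7.5 nL into about 7.5 µL; 0% = neutral wells and 100% = wells with inactivated enzyme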
NALP1 inh = NALP1 inflammasome inhibitors in reconstituted yeast, colorimetric, S. cerevisiae, triplicate retest | S. cerevisiae NALP1/ASC/caspase-1 growth, X-gal OD620, 72 h | inhibition, % at 10 µM | 0.61% of 280,000 active; in the data active = inhibition mostly above about 24%, no sharp cut-off; inactive = mostly below about 32%
HDAC3 inh = HDAC3 deacetylase inhibitors, primary screen, biochemical, fluorescence, cell-free homogeneous; inhibition, % at 8.3 µM; Histone deacetylase 3 (Homo sapiens), O15379; AID 2718, 2010; 0.15% of 320,000 active; recombinant HDAC3, fluorogenic peptide/trypsin coupled; in the data active = inhibition above about 26%, passing the limit was not always enough
MC4R ag barr = MC4R agonists recruiting beta-arrestin, primary screen, cell-based, luminescence, agonist arm of biased-ligand search. activation, % at 8.9 µM. 0.98% of 360,000 active. U2OS MC4R beta-arrestin complementation; percent of melanotan II response, DMSO zero. Melanocortin receptor 4 (Homo sapiens), P32245;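 active = activation above a per-plate cutoff, the mean activation of sample wells on that plate plus 3 SD, cut at about 8% in these data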
MC4R antag cAMP = MC4R antagonists of cAMP signaling, primary screen, cell-based, TR-FRET, antagonist arm of biased-ligand search | inhibition, % at 6.5 µM | AID 540295, 2011 | MC4R-expressing cells, MTII-stimulated cAMP, LANCE TR-FRET | Melanocortin receptor 4 (Homo sapiens), P32245 | 0.48% of 360,000 active;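 active = inhibition above its plate's cutoff, the mean of tested wells on that plate plus 3 SD, cut at about 29% in these data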
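Material: U2OS-MC4R stable cell line | Reagent: Melanotan II challenge after compound preincubation | Doses: One concentration, 6.5 µM nominal | Incubation: 30-min compound preincubation, 1-h Melanotan II challenge, 1-h detection, room temperature | Signal: TR-FRET cAMP assay | Replicates: One well per compound, no replicates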
UUG fidelity = alters start codon recognition fidelity in yeast. S. cerevisiae UUG-firefly luciferase reporter, luminescence/redox ratio. 350,000 tested, 0.13% active. activity score, % at 18.7 µM. AID 602363;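 active means replicate mean at a twofold rise or more, about +100% in these data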;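 further: firefly luciferase made from a UUG start codon reports start codon fidelity; reporter light over untreated wells divided by growth signal over untreated wells; some hits fall short of that in this replicate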
MC4R barr ag = MC4R beta-arrestin agonists, retest, confirmation, cell-based, luminescence, U2OS | shares compounds with MC4R ag barr | 31% of 2,400 active | activation, % at 8.9 µM | U2OS MC4R beta-arrestin recruitment; scaled DMSO 0%, Melanotan II 100%;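 active = mean activation across replicates above the hit cutoff set in the earlier primary screen, cut at about 8% in these data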
MOR DOR agonist = agonists of MOR-DOR heterodimerization, counter-screen for MC4R biased agonist project, cell-based, luminescence | shares compounds with MC4R ag barr | U2OS PathHunter beta-arrestin, beta-gal luminescence; percent of deltorphin B response, DMSO zero | activation, % at 9.2 µM | 5.8% of 2,400 active | AID 602194, 2012;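 active = mean activation across replicates exceeds the hit threshold derived in the earlier primary screen, cut at about 18% in these data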
Large screens that a line does not name were inactive (follow-up assays come after a bar, where they were run). An excerpt weighted towards active compounds, which were near 4.2% of everything screened.

The chains behind the UniProt entries cited, without tags or fusion partners.
Melanocortin receptor 4 (Homo sapiens), P32245, UniProt P32245, whole entry, looked up: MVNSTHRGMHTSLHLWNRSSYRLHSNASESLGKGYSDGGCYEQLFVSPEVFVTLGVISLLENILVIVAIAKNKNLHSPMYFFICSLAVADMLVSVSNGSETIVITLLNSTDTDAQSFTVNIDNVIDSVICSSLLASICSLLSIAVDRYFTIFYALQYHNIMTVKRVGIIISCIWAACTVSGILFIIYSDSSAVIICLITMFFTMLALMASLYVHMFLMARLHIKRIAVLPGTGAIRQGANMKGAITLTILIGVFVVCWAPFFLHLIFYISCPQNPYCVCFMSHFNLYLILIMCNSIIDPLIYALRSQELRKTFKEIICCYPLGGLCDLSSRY

O=C(CCN1C(=O)c2ccccc2C1=O)Nc1ccc(F)cc1	none
CCCNC(=O)N(C)C[C@@H]1Oc2cc(-c3cccnc3)ccc2S(=O)(=O)N([C@@H](C)CO)C[C@H]1C	none (no result: ALR inh, NALP1 inh, HDAC3 inh, MC4R ag barr, MC4R antag cAMP)
Cc1ccc(S(=O)(=O)Nc2ccc3c(c2)C(=O)N([C@H](C)CO)C[C@@H](C)[C@H](CN(C)C(=O)Nc2ccc(C(F)(F)F)cc2)O3)cc1	none (no result: ALR inh, NALP1 inh, HDAC3 inh, MC4R ag barr, MC4R antag cAMP)
C=C(C)CNC(=S)NNC(=O)CCn1c2cc(Cl)ccc2c2ccc(Cl)cc21	none
C=C(C)CNC(=S)NNC(=O)CCn1c2ccc(Cl)cc2c2cc(Cl)ccc21	MC4R ag barr 11 (no result: UUG fidelity) | MC4R barr ag inactive | MOR DOR agonist inactive
O=Nc1c(O)n(Cc2ccccc2)c2ccccc12	none (no result: ALR inh, HDAC3 inh)
O=Nc1c(O)n(Cc2ccc(Cl)c(Cl)c2)c2ccccc12	MC4R ag barr 10 | MC4R barr ag inactive | MOR DOR agonist inactive
O=Nc1c(O)n(Cc2cccc(C(F)(F)F)c2)c2ccccc12	MC4R ag barr 11 (no result: UUG fidelity) | MC4R barr ag inactive | MOR DOR agonist inactive
Cc1noc(C)c1NC(=O)Nc1cccc2c1O[C@@H](CN(C)C)[C@H](C)CN([C@@H](C)CO)C2=O	none (no result: ALR inh, NALP1 inh, HDAC3 inh, MC4R ag barr, MC4R antag cAMP)
COc1ccc(CN(C)C[C@@H]2OCCCC[C@H](C)Oc3ccc(NS(=O)(=O)c4ccc(Cl)cc4)cc3C(=O)N([C@@H](C)CO)C[C@H]2C)cc1	none (no result: ALR inh, NALP1 inh, HDAC3 inh, MC4R ag barr, MC4R antag cAMP)
COc1cccc(/C=N/Nc2ccc([N+](=O)[O-])cn2)c1O	MC4R ag barr 23 | MC4R barr ag 15 | MOR DOR agonist inactive
O=[N+]([O-])c1ccc(NN=Cc2cccc3ccccc23)nc1	none (no result: ALR inh, NALP1 inh, HDAC3 inh)
O=C(CSC1=Nc2ccccc2C2CC=NN12)Nc1ccc(F)cc1Cl (stereo not drawn)	MC4R ag barr 26 (no result: UUG fidelity) | MC4R barr ag inactive | MOR DOR agonist inactive
Cc1ccc(NC(=O)CSC2=Nc3ccccc3C3CC=NN23)c(C)c1 (stereo not drawn)	none
COc1cc(CNCCc2ccc(S(N)(=O)=O)cc2)ccc1OCc1ccc(Cl)cc1	none
CCOc1cc(/C=N/N=C(N)N)ccc1OCc1ccc(Cl)cc1	MC4R ag barr 12 | MC4R barr ag 11 | MOR DOR agonist inactive
CCOc1cc(CNCCc2ccc(S(N)(=O)=O)cc2)ccc1OCc1ccc(Cl)cc1	MC4R ag barr 12 | MC4R barr ag 71 | MOR DOR agonist 58
C/C(=N\Nc1nncc2ccccc12)c1cccc(OC(F)F)c1	MC4R ag barr 17 | MC4R barr ag inactive | MOR DOR agonist inactive
C/C(=N\Nc1nncc2ccccc12)c1ccc(O)cc1	none
CCC(=O)Nc1ccc2c(c1)C(=O)N(C)C[C@@H](OC)[C@H](C)CN(Cc1cc(-c3ccccc3)on1)[C@H](C)CO2	none (no result: ALR inh, NALP1 inh, HDAC3 inh, MC4R ag barr, MC4R antag cAMP)
Cc1ccc(NC(=S)N/N=C/c2c(C)[nH]c3ccccc23)cc1	none
COc1ccc(NC(=S)N/N=C/c2cccn2Cc2ccc(F)cc2)cc1	MC4R ag barr 10 (no result: UUG fidelity) | MC4R barr ag inactive | MOR DOR agonist inactive
Cc1ccc(Cn2cccc2/C=N/NC(=S)Nc2ccc(C)cc2)cc1	MC4R ag barr 21 | MC4R barr ag 8.8 | MOR DOR agonist inactive
COc1ccc(NC(=S)Nc2ccc(F)cc2)cc1	none
O=C(Nc1ccc2c(c1)[C@H]1C[C@@H](CC(=O)N3CCCCC3)O[C@@H](CO)[C@H]1O2)C1CCC1	none (no result: ALR inh, NALP1 inh, HDAC3 inh, MC4R ag barr, MC4R antag cAMP)
